Target: T1, MBP-tagged NONO (non-POU domain containing octamer binding) protein, full-length, recombinant (human, UniProt Q15233 1-471)
T1 construct: also called p54nrb; source: purified recombinant protein
T1 sequence (looked up): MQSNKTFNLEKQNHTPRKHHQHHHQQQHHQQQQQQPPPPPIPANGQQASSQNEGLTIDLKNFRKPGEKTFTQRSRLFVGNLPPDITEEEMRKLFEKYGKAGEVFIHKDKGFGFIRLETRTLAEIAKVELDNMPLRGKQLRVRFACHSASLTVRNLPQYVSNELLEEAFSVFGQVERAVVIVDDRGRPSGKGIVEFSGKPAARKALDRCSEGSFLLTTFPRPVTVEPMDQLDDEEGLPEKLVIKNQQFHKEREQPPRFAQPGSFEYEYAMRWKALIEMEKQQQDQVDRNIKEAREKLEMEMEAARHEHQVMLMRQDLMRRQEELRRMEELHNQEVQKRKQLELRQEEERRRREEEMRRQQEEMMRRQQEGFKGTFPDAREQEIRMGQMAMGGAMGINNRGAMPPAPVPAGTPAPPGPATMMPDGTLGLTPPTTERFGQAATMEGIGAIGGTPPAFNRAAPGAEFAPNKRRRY
Experiment: co-IP; purified recombinant GST-tagged c-Myc and MBP-tagged NONO, full-length or truncations, mixed in vitro; co-IP and western blot with GST-tag or MBP antibodies; also with or without in vitro generated circ-hnRNPU, which attenuated the interaction
Details: both partners purified

binding result: binds
B1: GST-tagged c-Myc protein, full-length, recombinant (natural protein, human, UniProt P01106-2 1-454, looked up)
chain: MDFFRVVENQQPPATMPLNVSFTNRNYDLDYDSVQPYFYCDEEENFYQQQQQSELQPPAPSEDIWKKFELLPTPPLSPSRRSGLCSPSYVAVTPFSLRGDNDGGGGSFSTADQLEMVTELLGGDMVNQSFICDPDDETFIKNIIIQDCMWSGFSAAAKLVSEKLASYQAARKDSGSPNPARGHSVCSTSSLYLQDLSAAASECIDPSVVFPYPLNDSSSPKSCASQDSSAFSPSSDSLLSSTESSPQGSPEPLVLHEETPPTTSSDSEEEQEDEEEIDVVSVEKRQAPGKRSESGSPSAGGHSKPPHSPLVLKRCHVSTHQHNYAAPPSTRKDYPAAKRVKLDSVRVLRQISNNRKCTSPRSSDTEENVKRRTHNVLERQRRNELKRSFFALRDQIPELENNEKAPKVVILKKATAYILSVQAEEQKLISEEDLLRKRREQLKHKLEQLRNSCA
notes: c-Myc, human; 1365 bp fits 454 codons and a stop, the 454-residue form; The isoform is inferred from the printed cDNA length only; source: purified recombinant protein
